Test results as given in PubChem BioAssay AID1467 (National Center for Advancing Translational Sciences (NCATS), 2008).
The list shows a part of the results, in another mix than the full data. The source made the active and inactive calls. The call rests on the fitted dose curve; in most records, active means well fitted curve in the direction sought with a large enough effect; inconclusive means small, poorly fitted or top-dose-only effect, or effect the other way, or another doubt; inactive means no such curve, though single readings can be large or run the other way.

Amino acid sequences for entries named in this document (tags omitted).
UniProt P06280, whole entry: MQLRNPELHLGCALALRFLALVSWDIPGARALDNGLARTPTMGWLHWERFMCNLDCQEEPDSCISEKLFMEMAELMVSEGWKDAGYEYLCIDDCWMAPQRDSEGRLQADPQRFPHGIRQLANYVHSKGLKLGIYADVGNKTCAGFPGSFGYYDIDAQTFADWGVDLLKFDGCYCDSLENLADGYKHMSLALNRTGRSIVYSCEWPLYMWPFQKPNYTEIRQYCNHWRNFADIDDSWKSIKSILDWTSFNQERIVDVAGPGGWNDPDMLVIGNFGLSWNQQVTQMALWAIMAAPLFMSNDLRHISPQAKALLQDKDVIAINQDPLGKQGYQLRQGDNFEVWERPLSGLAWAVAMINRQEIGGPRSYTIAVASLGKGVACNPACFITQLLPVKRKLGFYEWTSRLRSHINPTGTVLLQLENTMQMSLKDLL

target: Alpha-galactosidase A (Homo sapiens) (UniProt P06280); assay: qHTS Assay for Inhibitors of Human alpha-Galactosidase at pH 4.5.;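 further: 0% = full activity with enzyme and -100% = basal without enzyme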; conditions: purified enzyme, 4-MU-alpha-Gal fluorescence; at 105 µM (top of the series)
Description: NIH Chemical Genomics Center [NCGC]
NIH Molecular Libraries Probe Production centers Network [MLPCN]
Assay Submitter (PI): Wei Zheng
Alpha-galactosidase is a homodimeric glycoprotein that hydrolyzes the terminal alpha-galactosyl moieties from glycolipids and glycoproteins. Deficiency of this enzyme results in Fabry Disease with progressive accumulation of globotriaosylceramide and other glycosphingolipids in vascular endothelial cells that causes renal failure, myocardial infarction and stroke, and premature death in patients. It has been reported that the improper folding and trafficking of alpha-galactosidase resulting from the genetic mutations may account for a significant numbers of Fabry patients. […] We optimized this alpha-galactosidase assay in 1536-well plate format for identifying the novel small molecule inhibitors with the structures other than the sugar analogs in order to develop the new pharmacological chaperones. […]
This is a fluorogenic enzyme assay with 4-Methylumbelliferyl alpha-D-galactopyranoside as the substrate and human […] as the enzyme preparation. […] This fluorescence which can be detected by a standard fluorescence plate reader. […] In the AC50 values were determined from concentration-response data modeled with the standard Hill equation. […]
(6) Detect the assay plate in a ViewLux plate reader (PerkinElmer) with Ex=365 nm and Em=440nm. […]

Question: For `CN(CCCl)CCCl`, which activity change, negative = inhibition is on record?
Answer: inactive: -0.809%
